Literature values as cited in US7375111B2, “Compositions for affecting weight loss” (priority 2003, dated 2008).

Tested on: serotonin reuptake
Conditions: compared with fluoxetine; SAR of U.S. Pat. No. 4,214,081; cited from earlier work

For `CN(C)CCC(Oc1ccc(C(F)(F)F)cc1)c1ccccc1` (stereo not shown) [N-Methylfluoxetine], the “Potency and selectivity toward inhibition of serotonin reuptake” value is listed as “comparable potency and selectivity to that of fluoxetine”.
